Our source for the growth values is PubChem BioAssay (NCI).

Holding throughout (experiment): NCI-60 one-dose screen, 48 h (100 = growth as untreated, 0 = no growth, -100 = all killed)
Holding throughout (conditions): 10 µM

Assay [1] deals with MOLT-4 leukemia.
Assay [2] deals with SR leukemia.
The subject of assay [3] is RPMI-8226 leukemia.
In assay [4] the test system is OVCAR-8 ovarian.
Assay [5] has as its system OVCAR-5 ovarian.
Assay [6] concerns OVCAR-4 ovarian.
Assay [7] deals with SK-OV-3 ovarian.
For assay [8], the system named is IGROV1 ovarian.
Assay [9] relates to OVCAR-3 ovarian.
Assay [10] concerns HS 578T breast.
The subject of assay [11] is NCI/ADR-RES ovarian.
The test system of assay [12] is T-47D breast.
Assay [13] has as its system BT-549 breast.
The test system of assay [14] is MDA-MB-435 melanoma.
Assay [15] has as its system SW-620 colon.
Assay [16] relates to MCF7 breast.
The test system of assay [17] is HCT-116 colon.
The subject of assay [18] is HCC-2998 colon.
Assay [19] relates to KM12 colon.

Where “and” joins values, the source holds several entries; their conditions need not be identical. Equal values may be shown once. The list shows a part of the results, in another mix than the full data. Some tests of the compounds listed are not included; inactive here does not mean inactive elsewhere.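 48-hour exposure, single concentration, 96-well plates; percent growth endpoint where 0 means no net growth. Active: below 10.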 Calls of active or inactive are those of the source.

In the case of `N#CC(C#N)=Cc1ccc(Br)cc1`, the growth in assay [1] was inactive: 97.9% and inactive: 110%; in [2] it was inactive: 99.6%; in assay [3], inactive: 102% and inactive: 103%; in assay [4] it was inactive: 115% and inactive: 107%; in assay [5], inactive: 109% and inactive: 115%; in assay [6], inactive: 112% and inactive: 107%. For the same compound, the growth was inactive: 108% and inactive: 115% in [7]; inactive: 115% in assay [8]; inactive: 108% and inactive: 112% in assay [9]; inactive: 112% and inactive: 108% in [10]; inactive: 103% and inactive: 104% in assay [11]; inactive: 101% and inactive: 96.5% in assay [12]. The growth in assay [13] is inactive: 114% and inactive: 123%; in assay [14], inactive: 103% and inactive: 111%; in assay [15], inactive: 104% and inactive: 118%; in assay [16], inactive: 99.4% and inactive: 96.4%; in assay [17], inactive: 94% and inactive: 106%; in assay [18], inactive: 111% and inactive: 95.6%. Moreover, the growth in [19] was inactive: 104%.

For the compound `CCNCCCl`, the growth in assay [1] is inactive: 115%; in assay [2] it was inactive: 109%; in assay [3], inactive: 104%; in assay [4] it was inactive: 110%; in assay [5], inactive: 92%; in assay [6] it was inactive: 106%. For the same compound, the growth in [7] was inactive: 111%; in [8], inactive: 122%; in assay [9], inactive: 92.8%; in assay [11] it was inactive: 112%; in assay [12] it was inactive: 120%; in [13], inactive: 112%. For the same compound, the growth was inactive: 99.1% in [14]; inactive: 99.1% in assay [15]; inactive: 95.1% in assay [16]; inactive: 106% in [17]; inactive: 122% in assay [18]; inactive: 95.2% in assay [19].

Regarding `CC(=O)CI`, the growth in assay [1] is inactive: 117%; in assay [2], inactive: 107%; in assay [3], inactive: 112%; in assay [4], inactive: 102%; in assay [6], inactive: 101%; in assay [7] it was inactive: 121%. Further, the growth is inactive: 104% in assay [8]; inactive: 107% in assay [9]; inactive: 109% in [10]; inactive: 108% in [11]; inactive: 101% in [12]; inactive: 106% in assay [13]. The growth is inactive: 103% in assay [14]; inactive: 101% in [15]; inactive: 95.8% in assay [16]; inactive: 101% in [17]; inactive: 106% in [18]; inactive: 105% in [19].

As to `Cc1cc2nc(CN(CCCl)CCCl)[nH]c2cc1C`, the growth is inactive: 36.9% in [1]; active: -9.8% in assay [2]; inactive: 93.2% in assay [3]; inactive: 81.7% in assay [4]; inactive: 105% in [5]; inactive: 98.2% in assay [6]. Also, the growth in assay [7] was inactive: 87.5%; in assay [9], inactive: 95.7%; in [10], inactive: 92.9%; in assay [11], inactive: 87.6%; in assay [12], inactive: 81.4%; in assay [13] it was inactive: 101%. Further, the growth in [14] was inactive: 114%; in assay [15], inactive: 67.1%; in assay [16] it was inactive: 51.9%; in assay [17] it was inactive: 74.5%; in assay [18], inactive: 66%; in [19] it was inactive: 89.7%.

On to `ClCCN(CCCl)Cc1ccc(Cl)c(Cl)c1`, for which the growth in [1] was inactive: 88.1%; in assay [2], inactive: 82.7%; in [3], inactive: 91.2%; in assay [4], inactive: 99.6%; in assay [5], inactive: 97.7%; in assay [6] it was inactive: 103%. Also, the growth was inactive: 115% in [7]; inactive: 98.4% in assay [8]; inactive: 107% in [9]; inactive: 98% in assay [11]; inactive: 90.2% in assay [12]; inactive: 107% in assay [13]. Besides, the growth is inactive: 106% in [14]; inactive: 102% in [15]; inactive: 96.1% in assay [16]; inactive: 95.2% in assay [17]; inactive: 98.4% in assay [18]; inactive: 98% in assay [19].

Regarding `ClCCN(CCCl)C1CCCCC1`, the growth is inactive: 88.5% in assay [1]; inactive: 88.8% in assay [2]; inactive: 102% in [3]; inactive: 99.7% in assay [4]; inactive: 98.9% in assay [5]; inactive: 101% in [6]. Further, the growth is inactive: 107% in [7]; inactive: 88.6% in assay [8]; inactive: 102% in [10]; inactive: 95.2% in [11]; inactive: 100% in assay [12]; inactive: 109% in [13]. Further, the growth in assay [14] was inactive: 97.2%; in assay [15], inactive: 93.6%; in [16], inactive: 92.1%; in assay [17], inactive: 102%; in assay [18], inactive: 103%; in assay [19] it was inactive: 100%.

For `CCCN(CCCl)CCCl`, the growth in assay [1] is inactive: 103%; in assay [2] it was inactive: 86.5%; in assay [3] it was inactive: 102%; in [4], inactive: 98.3%; in [5], inactive: 99%; in assay [6], inactive: 109%. In addition, the growth in assay [7] is inactive: 111%; in [8] it was inactive: 92.7%; in assay [9] it was inactive: 117%; in [11], inactive: 119%; in [12], inactive: 102%; in assay [13] it was inactive: 106%. Moreover, the growth in assay [14] is inactive: 102%; in [15] it was inactive: 101%; in assay [16], inactive: 91.2%; in [17], inactive: 104%; in assay [18], inactive: 133%; in [19], inactive: 110%.
